Test results: patent US12318477B2, “Injectable and inhalable formulations” (CYBIN UK LTD, priority 2021, dated 2025)

Assay: Stability of Example 10 formulations after storage for 3 months (related substances)
Settings: Example 10 formulation (25 mg/mL as free base, pH 6), limit of quantitation ≥0.05% w/w

CN(C)CCc1c[nH]c2ccccc12.O=C(O)/C=C/C(=O)O [SPL026, N,N-dimethyltryptamine (DMT) fumarate salt]
related substances (3 months storage at 2-8° C.): no related substances above the limit of quantitation
related substances (3 months storage at 25° C./60% RH): no related substances above the limit of quantitation
related substances (T=0): no related substances above the limit of quantitation
